Results: US8741174B1, “Reduced weight decontamination formulation for neutralization of chemical and biological warfare agents” (dated 2014)

Experiments:
[1] = Series of tests comparing cationic surfactants in the formulation
[2] = Co-solvent materials for dissolution of sodium percarbonate; conditions: for Approximate Dissolution Time in De-ionized Water: 20% (w/v) sodium percarbonate
[3] = Thermal analysis of solid peroxides (TGA and DSC, dry air); conditions: onset of weight loss as measured by TGA
[4] = Solubility of solid peroxides in water, filtrate titrated for hydrogen peroxide; conditions: for solubility in water: level needed for DF-200: at least 3.5 wt %; for Titrated wt % H2O2: solid for theoretical ~4 wt % H2O2, de-ionized water, stirred 15 min, room temperature, filtered
[5] = cited from earlier work
[6] = Solubility of sodium perborate with a complexing second material (sorbitol, mannitol); conditions: dissolved with secondary material (e.g., sorbitol, mannitol)
[7] = Oven stability testing of solid peroxides, cycling 30° C. to 70° C. every 24 hours; conditions: oven 30-70° C. cycle
[8] = Summary of solid hydrogen peroxide material properties; conditions: at solubility limit of 12%

| Compound | Compatible with Seawater [2] | Required Concentration (w/v) to dissolve 20% (w/v) sodium percarbonate [2] | Approximate Dissolution Time in De-ionized Water [2] [min] | Decomposition Temperature [3] [°C] | Titrated wt % H2O2 [4] [wt %] | also measured |
| --- | --- | --- | --- | --- | --- | --- |
| CCCCCCCCCCCC[N+](C)(C)C.[Cl-] |  |  |  |  |  | efficacy as compared to other cationic surfactants [1]: superior efficacy; foam stability as compared to other cationic surfactants [1]: best foam stability |
| OC[C@@H](O)[C@@H](O)[C@H](O)[C@@H](O)CO |  |  |  |  |  | effect on precipitation of the potassium tetraborate ([2]; addition of 8% (w/v)): prevents the precipitation |
| Ammonium Sulfate | No | 12% (w/v) | 10 |  |  |  |
| Calcium Peroxide |  |  |  | >300 | <0.1 | solubility in water [4]: insoluble |
| Calcium/Magnesium Peroxide |  |  |  |  |  | Comments: dissolves only at pH [5]: at pH <2 |
| Potassium Citrate (tribasic) | Yes | 20% (w/v) | 12 |  |  | Comments: dissolution in saltwater ([2]; saltwater): Very slow |
| Potassium Phosphate (dibasic) | No | 12% (w/v) | 6 |  |  |  |
| Potassium Sulfate | No | 12% (w/v) | 10 |  |  |  |
| Potassium Superoxide |  |  |  | >300 | 4.8 ± 0.1 |  |
| Potassium Tetraborate Tetrahydrate | Yes | 4% (w/v) | 5 |  |  | Comments: precipitates from solution after [2]: after ~4 hours |
| Sodium Perborate Monohydrate |  |  |  | 143 | 0.5 ± 0.1 | peroxide concentration that can be achieved [6]: ≥ 3.5 wt %; solubility in water [4]: slightly soluble |
| Sodium Percarbonate |  |  |  |  |  | retained original peroxide content ([7]; after 120 days, best case): approximately 80%; hydrogen peroxide concentration yielded at solubility limit [8]: 3.6 % (w/v) |
| Sodium Percarbonate [Sodium Percarbonate (Provox)] |  |  |  | 137 | 4.3 ± 0.1 |  |
| Sodium Peroxide |  |  |  | >300 | 4.7 ± 0.1 | time after which material degraded rapidly [7]: approximately 25 days |
| Urea Hydrogen Peroxide |  |  |  | 59 | 4.4 ± 0.1 |  |
| Zinc Peroxide |  |  |  | 209 | <0.1 | solubility in water [4]: insoluble |
